Target: JAK2 (Homo sapiens (Human), UniProt O60674)
Assay: Jak biochemical HTRF assay, JAK2
Conditions: recombinant purified GST-tagged catalytic domain; HTRF format; [ATP] 8.5 μM
Source text: Jak Biochemical HTRF Assay Protocol
Subsequent reagent additions employed an Agilent Bravo.

Amino acid sequences for entries named in this document (tags omitted). Residues count along the entry.
UniProt O60674, 849-1124: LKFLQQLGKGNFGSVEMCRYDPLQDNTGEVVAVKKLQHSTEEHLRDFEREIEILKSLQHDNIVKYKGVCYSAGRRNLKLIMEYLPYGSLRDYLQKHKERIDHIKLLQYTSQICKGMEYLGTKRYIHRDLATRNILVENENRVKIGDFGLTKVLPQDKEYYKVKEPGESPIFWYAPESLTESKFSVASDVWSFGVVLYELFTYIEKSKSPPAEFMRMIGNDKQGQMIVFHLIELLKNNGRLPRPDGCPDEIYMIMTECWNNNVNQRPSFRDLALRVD

Compound	IC50
N#C[C@@H]1CN(C(=O)OCCN2CCOCC2)CC[C@H]1n1cc(C(N)=O)c(Nc2ccc(F)cc2)n1 (racemic) [Example 5-4, 2-morpholin-4-ylethyl (3R,4R and 3S,4S)-4-{4-carbamoyl-3-[(4-fluorophenyl)amino]-1H-pyrazol-1-yl}-3-cyanopiperidine-1-carboxylate]	835 nM
CC(C)(C#N)COC(=O)N1CC[C@@H](n2cc(C(N)=O)c(Nc3ccc(F)cc3)n2)[C@H](C#N)C1 (racemic) [Example 5-6, 2-cyano-2-methylpropyl (3R,4R and 3S,4S)-4-{4-carbamoyl-3-[(4-fluorophenyl)amino]-1H-pyrazol-1-yl}-3-cyanopiperidine-1-carboxylate]	411 nM
N#C[C@@H]1CN(C(=O)OCC(F)F)CC[C@H]1n1cc(C(N)=O)c(Nc2ccc(F)cc2)n1 (racemic) [Example 5-16, 2,2-difluoroethyl (3R,4R and 3S,4S)-4-{4-carbamoyl-3-[(4-fluorophenyl)amino]-1H-pyrazol-1-yl}-3-cyanopiperidine-1-carboxylate]	132 nM
CCOC(=O)N1CC[C@@H](n2cc(C(N)=O)c(Nc3ccc(F)cc3)n2)[C@H](C#N)C1 (racemic) [Example 5-23, ethyl (3R,4R and 3S,4S)-4-{4-carbamoyl-3-[(4-fluorophenyl)amino]-1H-pyrazol-1-yl}-3-cyanopiperidine-1-carboxylate]	158 nM
N#C[C@@H]1CN(C(=O)OCC(F)(F)F)CC[C@H]1n1cc(C(N)=O)c(Nc2ccc(F)cc2)n1 (racemic) [Example 5-28, 2,2,2-trifluoroethyl (3R,4R and 3S,4S)-4-{4-carbamoyl-3-[(4-fluorophenyl)amino]-1H-pyrazol-1-yl}-3-cyanopiperidine-1-carboxylate]	268 nM
CCOC(=O)COC(=O)N1CC[C@@H](n2cc(C(N)=O)c(Nc3ccc(F)cc3)n2)[C@H](C#N)C1 (racemic) [Example 5-38, 2-ethoxy-2-oxoethyl (3R,4R and 3S,4S)-4-{4-carbamoyl-3-[(4-fluorophenyl)amino]-1H-pyrazol-1-yl}-3-cyanopiperidine-1-carboxylate]	73 nM
CCOC(=O)N1CC[C@H](n2cc(C(N)=O)c(Nc3ccc(F)cc3)n2)[C@H](C#N)C1 (racemic) [Example 5-44, ethyl (3R,4S and 3S,4R)-4-{4-carbamoyl-3-[(4-fluorophenyl)amino]-1H-pyrazol-1-yl}-3-cyanopiperidine-1-carboxylate]	1200 nM
CCOC(=O)COC(=O)N1CC[C@H](n2cc(C(N)=O)c(Nc3ccc(F)cc3)n2)[C@H](C#N)C1 (racemic) [Example 5-59, 2-ethoxy-2-oxoethyl (3R,4S and 3S,4R)-4-{4-carbamoyl-3-[(4-fluorophenyl)amino]-1H-pyrazol-1-yl}-3-cyanopiperidine-1-carboxylate]	1390 nM
N#C[C@@H]1CN(C(=O)OCC(F)F)CC[C@@H]1n1cc(C(N)=O)c(Nc2ccc(F)cc2)n1 (racemic) [Example 5-65, 2,2-difluoroethyl (3R,4S and 3S,4R)-4-{4-carbamoyl-3-[(4-fluorophenyl)amino]-1H-pyrazol-1-yl}-3-cyanopiperidine-1-carboxylate]	1080 nM
N#C[C@@H]1CN(C(=O)OCC(F)(F)F)CC[C@@H]1n1cc(C(N)=O)c(Nc2ccc(F)cc2)n1 (racemic) [Example 5-66, 2,2,2-trifluoroethyl (3R,4S and 3S,4R)-4-{4-carbamoyl-3-[(4-fluorophenyl)amino]-1H-pyrazol-1-yl}-3-cyanopiperidine-1-carboxylate]	994 nM

Further lines, results first:

IC50	Compound
79 nM	N#C[C@@H]1CS(=O)(=O)CCC1n1cc(C(N)=O)c(Nc2ccc(F)cc2)n1 (mixture of isomers) [Example 8-2, 1-((3R,4S and 3S, 4R)-3-cyano-1,1-dioxidotetrahydro-2H-thiopyran-4-yl)-3-((4-fluorophenyl)amino)-1H-pyrazole-4-carboxamide]
191 nM	COC1CC(CN2CC[C@@H](C#N)[C@H](n3cc(C(N)=O)c(Nc4ccc(F)cc4)n3)C2)C1 (mixture of isomers) [Example 6-9, 1-{(3S,4R and 3R,4S)-4-cyano-1-[(3-methoxycyclobutyl)methyl]piperidin-3-yl}-3-[(4-fluorophenyl)amino]-1H-pyrazole-4-carboxamide]
12 nM	N#C[C@@H]1CCN(Cc2cccnc2F)C[C@H]1n1cc(C(N)=O)c(Nc2ccc(F)cc2)n1 (racemic) [Example 6-17, 1-{(3S,4R and 3R,4S)-4-cyano-1-[(2-fluoropyridin-3-yl)methyl]piperidin-3-yl}-3-[(4-fluorophenyl)amino]-1H-pyrazole-4-carboxamide]
19 nM	Cc1ncc(CN2CC[C@@H](C#N)[C@H](n3cc(C(N)=O)c(Nc4ccc(F)cc4)n3)C2)s1 (racemic) [Example 6-18, 1-{(3S,4R and 3R,4S)-4-cyano-1-[(2-methyl-1,3-thiazol-5-yl)methyl]piperidin-3-yl}-3-[(4-fluorophenyl)amino]-1H-pyrdzole-4-carboxamide]
148 nM	Cn1ccc(CN2CC[C@@H](n3cc(C(N)=O)c(Nc4ccc(F)cc4)n3)[C@H](C#N)C2)n1 (racemic) [Example 6-26, 1-{(3R,4R and 3S,4S)-3-cyano-1-[(1-methyl-1H-pyrazol-3-yl)methyl]piperidin-4-yl}-3-[(4-fluorophenyl)amino]-1H-pyrazole-4-carboxamide]
58 nM	N#C[C@@H]1CN(Cc2cncc(F)c2)CC[C@H]1n1cc(C(N)=O)c(Nc2ccc(F)cc2)n1 (racemic) [Example 6-28, 1-{(3R,4R and 3S,4S)-3-cyano-1-[(5-fluoropyridin-3-yl)methyl]piperidin-4-yl}-3-[(4-fluorophenyl)amino]-1H-pyrazole-4-carboxamide]
166 nM	COC1CC(CN2CC[C@@H](n3cc(C(N)=O)c(Nc4ccc(F)cc4)n3)[C@H](C#N)C2)C1 (mixture of isomers) [Example 6-30, 1-{(3R,4R and 3S,4S)-3-cyano-1-[(3-methoxycyclobutyl)methyl]piperidin-4-yl}-3-[(4-fluorophenyl)amino]-1H-pyrazole-4-carboxamide]
258 nM	N#C[C@@H]1CN(CCC2CCOCC2)CC[C@H]1n1cc(C(N)=O)c(Nc2ccc(F)cc2)n1 (racemic) [Example 6-31, 1-{(3R,4R and 3S,4S)-3-cyano-1-[2-(tetrahydro-2H-pyran-4-yl)ethyl]piperidin-4-yl}-3-[(4-fluorophenyl)amino]-1H-pyrazole-4-carboxamide]
6 nM	N#C[C@@H]1CCN(Cc2cncs2)C[C@H]1n1cc(C(N)=O)c(Nc2ccc(F)cc2)n1 (racemic) [Example 7-1, 1-[(3S,4R and 3R,4S)-4-Cyano-1-(1,3-thiazol-5-ylmethyl)piperidin-3-yl]-3-[(4-fluorophenyl)amino]-1H-pyrazole-4-carboxamide]
112 nM	N#C[C@@H]1CS(=O)(=O)CCC1n1cc(C(N)=O)c(Nc2ccc(F)cc2)n1 (mixture of isomers) [Example 8-1, 1-((3R,4S and 3S,4R)-3-Cyano-1,1-dioxidotetrahydro-2H-thiopyran-4-yl)-3-((4-fluorophenyl)amino)-1H-pyrazole-4-carboxamide]
3 nM	N#C[C@H]1CCOC[C@@H]1n1cc(C(N)=O)c(Nc2ccc(Cl)cc2)n1 (single isomer, unassigned) [Example 9-4, 3-[(4-chlorophenyl)amino]-1-[(3R,4S or 3S,4R)-4-cyanotetrahydro-2H-pyran-3-yl]-1H-pyrazole-4-carboxamide]
